Reference: EP4603105A1, “PHARMACEUTICAL COMPOSITION CONTAINING CYCLIC COMPOUND HAVING SELECTIVE KRAS INHIBITORY EFFECT AGAINST HRAS AND NRAS” (CHUGAI SEIYAKU KABUSHIKI KAISHA, priority 2022, dated 2024)
Where two headings read alike, the source gives them in different places.

The chains behind the UniProt entries cited, without tags or fusion partners. Residues count along the entry.
UniProt P01112, whole entry: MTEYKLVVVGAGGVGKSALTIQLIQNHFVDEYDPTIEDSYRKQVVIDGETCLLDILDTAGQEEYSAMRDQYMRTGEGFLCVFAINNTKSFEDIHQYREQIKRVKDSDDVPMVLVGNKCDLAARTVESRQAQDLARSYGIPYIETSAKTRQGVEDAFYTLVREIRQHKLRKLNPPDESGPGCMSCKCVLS
UniProt P01111, whole entry: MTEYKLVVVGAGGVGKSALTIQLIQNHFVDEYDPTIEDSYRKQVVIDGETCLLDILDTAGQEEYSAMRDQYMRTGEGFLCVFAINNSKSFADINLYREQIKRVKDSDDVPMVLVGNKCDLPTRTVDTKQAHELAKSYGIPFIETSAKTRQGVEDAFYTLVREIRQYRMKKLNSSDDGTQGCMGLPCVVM
UniProt P01116, 1-188 isoform 2: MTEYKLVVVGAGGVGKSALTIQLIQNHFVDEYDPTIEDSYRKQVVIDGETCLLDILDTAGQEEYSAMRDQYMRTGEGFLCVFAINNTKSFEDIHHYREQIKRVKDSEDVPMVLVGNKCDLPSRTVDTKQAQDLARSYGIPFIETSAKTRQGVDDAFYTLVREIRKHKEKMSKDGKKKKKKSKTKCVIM

Columns and labels:
HRAS wild-type protein = HRAS wild-type protein (Homo sapiens, UniProt P01112); assay: Binding to HRAS by surface plasmon resonance (SPR), KD and KD ratio to KRAS
[1] = target: GDP-bound NRAS wild-type protein (Homo sapiens, UniProt P01111); assay: Binding to NRAS by surface plasmon resonance (SPR), KD and KD ratio to KRAS
[2] = system: human lung cancer strain NCI-H441; assay: NCI-H441 cell proliferation inhibitory activity (CellTiter-Glo, 4 days); type: cell-based
[3] = target: GDP-bound KRAS wild-type protein (Homo sapiens, UniProt P01116); assay: Binding to KRAS by surface plasmon resonance (SPR), dissociation constant KD
[4] = ratio of KD for HRAS wild-type protein to KD for KRAS
[5] = ratio of KD for GDP-bound NRAS wild-type protein to KD for KRAS
[6] = read-out: NCl-H441 IC50, NCI-H441 cells, 4 days
[7] = read-out: KRAS KD, 1:1 binding model
[8] = ratio of KD with respect to HRAS wild-type protein to KD with respect to KRAS
[9] = ratio of KD with respect to GDP-bound NRAS wild-type protein to KD with respect to KRAS
[10] = read-out: NCl-H441 IC50, 50% proliferation inhibitory concentration, four days
[11] = read-out: KRAS KD, Single Cycle Kinetics, 1:1 binding model

SMILES	HRAS /KRAS (HRAS wild-type protein; [4])	NRAS /KRAS [1, 5]	IC50 [2, 6] [nM]	Kd [3, 7] [nM]	HRAS /KRAS (HRAS wild-type protein; [8])	NRAS /KRAS [1, 9]	IC50 [2, 10] [nM]	Kd [3, 11] [nM]
CCCOC[C@H]1C(=O)N[C@@H]([C@@H](C)CC)C(=O)N(C)CC(=O)N(C)[C@H]2C/C=C\CCN(C2=O)[C@H](Cc2ccc(C)cc2)C(=O)N(C)CC(=O)N[C@@H](CCc2ccc(Cl)c(Cl)c2)C(=O)N2C[C@H](OCC)C[C@@H]2C(=O)NC2(CC(C)(C)C2)C(=O)N(C)[C@@H](CC2CCC2)C(=O)N(C)[C@@H](C(=O)N(C)C)CC(=O)N1C	A (a compound having 10 or more and less than 20 is denoted as A)	A (a compound having 10 or more and less than 20 is denoted as A)	93.6	0.62	–	–	–	–
CCC(C)C1NC(=O)C(COC)N(C)C(=O)CC(C(=O)N(C)C)N(C)C(=O)C(C(CC)CC)N(C)C(=O)C2(CC(C)(C)C2)NC(=O)C2CC(OC3CCCC3)CN2C(=O)C(CCc2ccc(Cl)c(Cl)c2)NC(=O)CN(C)C(=O)C(Cc2ccc(C)cc2)N2CCC=CCC(C2=O)N(C)C(=O)CN(C)C1=O (stereo not shown)	A (a compound having 10 or more and less than 20 is denoted as A)	AA (a compound having 20 or more is denoted as AA)	42.2	0.98	–	–	–	–
CC[C@H](C)[C@@H]1NC(=O)[C@H](CC)N(C)C(=O)C[C@@H](C(=O)N2CCOCC2)N(C)C(=O)[C@H](C2CCCC2)N(C)C(=O)C2(CCC2)NC(=O)[C@@H]2CCCN2C(=O)[C@H](CCc2cc(F)c(C(F)(F)F)c(F)c2)NC(=O)CN(C)C(=O)[C@H](Cc2ccc(C(F)(F)F)cc2)N2C[C@H](C)CC[C@@H](C2=O)N(C)C(=O)[C@@H]2CCN2C1=O	–	–	–	–	B (a compound having 3 or more and less than 10 is denoted as B)	B (a compound having 3 or more and less than 10 is denoted as B)	80.4	0.72
CCO[C@@H]1C[C@H]2C(=O)NC3(CCCC3)C(=O)N(C)[C@@H](C3CCCC3)C(=O)N(C)[C@H](C(=O)N(C)C)CC(=O)N(C)[C@@H](CC3CC3)C(=O)N[C@@H]([C@@H](C)CC)C(=O)N(C)CC(=O)N(C)[C@H]3CC[C@@H](C)CN(C3=O)[C@@H](Cc3ccc(C(F)(F)F)cc3)C(=O)N(C)CC(=O)N[C@@H](CCc3cc(F)c(C(F)(F)F)c(F)c3)C(=O)N2C1	–	–	–	–	B (a compound having 3 or more and less than 10 is denoted as B)	B (a compound having 3 or more and less than 10 is denoted as B)	1.9	0.033
CCCC1C(=O)NC(CC(C)C)C(=O)N(C2CC2)CC(=O)N(C)C2CC=CCCN(C2=O)C(Cc2ccc(C)cc2)C(=O)N(C)CC(=O)NC(CCc2ccc(C(F)(F)F)c(Cl)c2)C(=O)N2CC(OCC)CC2C(=O)NC2(CC(C)(C)C2)C(=O)N(C)C(C2CCCC2)C(=O)N(C)C(C(=O)N(C)C)CC(=O)N1C (stereo not shown)	B (a compound having 3 or more and less than 10 is denoted as B)	A (a compound having 10 or more and less than 20 is denoted as A)	185	3.6	–	–	–	–
CCO[C@@H]1C[C@H]2C(=O)NC3(CCC3)C(=O)N(C)[C@@H](C3CCCC3)C(=O)N(C)[C@H](C(=O)N3CCCCC3)CC(=O)N(C)[C@@H](CC(F)F)C(=O)N[C@@H]([C@@H](C)CC)C(=O)N(C)CC(=O)N(C)[C@H]3C/C=C\CCN(C3=O)[C@@H](Cc3ccc(C(F)(F)F)cc3)C(=O)N(C)CC(=O)N[C@@H](CCc3cc(F)c(C(F)(F)F)c(F)c3)C(=O)N2C1	–	–	–	–	A (a compound having 10 or more and less than 20 is denoted as A)	AA (a compound having 20 or more is denoted as AA)	4.9	0.22
CCOC1CC2C(=O)NC3(CC(C)(C)C3)C(=O)N(C)C(C(CC)CC)C(=O)N(C)C(C(=O)N(C)C)CC(=O)N(C)C(COC)C(=O)NC(C(C)CC)C(=O)N(C3CC3)CC(=O)N(C)C3CC=CCCN(C3=O)C(CC3CCCCC3)C(=O)N(C)CC(=O)NC(CCc3ccc(Cl)c(Cl)c3)C(=O)N2C1 (stereo not shown)	A (a compound having 10 or more and less than 20 is denoted as A)	A (a compound having 10 or more and less than 20 is denoted as A)	206	8.2	–	–	–	–
CCCOC[C@H]1C(=O)N[C@@H]([C@@H](C)CC)C(=O)N(C)CC(=O)N(C)[C@H]2C/C=C\CCN(C2=O)[C@H](Cc2ccc(C)cc2)C(=O)N(C)CC(=O)N[C@H](CCc2ccc(C(F)(F)F)c(OC)c2)C(=O)N2C[C@H](OCC)C[C@@H]2C(=O)NC2(CC(C)(C)C2)C(=O)N(C)[C@@H](CC2CCC2)C(=O)N(C)[C@@H](C(=O)N(C)C)CC(=O)N1C	A (a compound having 10 or more and less than 20 is denoted as A)	A (a compound having 10 or more and less than 20 is denoted as A)	57.1	1.2	–	–	–	–
CCOC1CC2C(=O)NC3(CCC3)C(=O)N(C)C(C3CCCC3)C(=O)N(C)C(C(=O)N3CCOCC3)CC(=O)N(C)C(Cc3cccc(C#N)c3)C(=O)NC(C(C)CC)C(=O)N(C)CC(=O)N(C)C3CCCCCN(C3=O)C(Cc3ccc(C(F)(F)F)cc3)C(=O)N(C)CC(=O)NC(CCc3cc(F)c(C(F)(F)F)c(F)c3)C(=O)N2C1 (stereo not shown)	–	–	–	–	B (a compound having 3 or more and less than 10 is denoted as B)	B (a compound having 3 or more and less than 10 is denoted as B)	124	0.5
CCCC1C(=O)NC(C(C)CC)C(=O)N(C2CC2)CC(=O)N(C)C2CC=CCCN(C2=O)C(Cc2ccc(C)cc2)C(=O)N(C)CC(=O)NC(CCc2cc(F)c(C(F)(F)F)c(F)c2)C(=O)N2CC(OCC)CC2C(=O)NC2(CC(C)(C)C2)C(=O)N(C)C(CC2CCC2)C(=O)N(C)C(C(=O)N(C)C)CC(=O)N1C (stereo not shown)	A (a compound having 10 or more and less than 20 is denoted as A)	A (a compound having 10 or more and less than 20 is denoted as A)	91.1	4.3	–	–	–	–
CCOC[C@H]1C(=O)N[C@@H]([C@@H](C)CC)C(=O)N(C)CC(=O)N(C)[C@H]2C/C=C\CCN(C2=O)[C@@H](Cc2ccc(C)cc2)C(=O)N(C)CC(=O)N[C@@H](CCc2ccc(C(F)(F)F)c(OC)c2)C(=O)N2C[C@@H](C)C[C@H]2C(=O)NC2(CC(C)(C)C2)C(=O)N(C)[C@@H](C2CCCC2)C(=O)N(C)[C@H](C(=O)N(C)CC)CC(=O)N1C	A (a compound having 10 or more and less than 20 is denoted as A)	A (a compound having 10 or more and less than 20 is denoted as A)	9.1	0.13	–	–	–	–
CCOC[C@H]1C(=O)N[C@@H]([C@@H](C)CC)C(=O)N(C2CC2)CC(=O)N(C)[C@H]2C/C=C\CCN(C2=O)[C@@H](Cc2ccc(C(F)(F)F)cc2)C(=O)N(C)CC(=O)N[C@@H](CCc2ccc(C(F)(F)F)c(OC)c2)C(=O)N2C[C@@H](C)C[C@H]2C(=O)N(C)C2(CCC2)C(=O)N(C)[C@@H](C2CCCC2)C(=O)N(C)[C@H](C(=O)N(C)C)CC(=O)N1C	A (a compound having 10 or more and less than 20 is denoted as A)	A (a compound having 10 or more and less than 20 is denoted as A)	4.4	0.064	–	–	–	–
CCOC1CC2C(=O)NC3(CCC3)C(=O)N(C)C(C3CCCC3)C(=O)N(C)C(C(=O)N3CCCC3)CC(=O)N(C)C(CC3CCCCC3)C(=O)NC(C(C)CC)C(=O)N(C)CC(=O)N(C)C3CC=CCCN(C3=O)C(Cc3ccc(C)cc3)C(=O)N(C)CC(=O)NC(CCc3cc(F)c(C(F)(F)F)c(F)c3)C(=O)N2C1 (stereo not shown)	–	–	–	–	A (a compound having 10 or more and less than 20 is denoted as A)	A (a compound having 10 or more and less than 20 is denoted as A)	27.9	0.3
CC[C@H](C)[C@@H]1NC(=O)[C@H](CC(C)C)N(C)C(=O)C[C@@H](C(=O)N2CCOCC2)N(C)C(=O)[C@H](C2CCCC2)N(C)C(=O)C2(CCC2)NC(=O)[C@@H]2C[C@@H](OCC(C)C)CN2C(=O)[C@H](CCc2cc(F)c(C(F)(F)F)c(F)c2)NC(=O)CN(C)C(=O)[C@H](Cc2ccc(C(F)(F)F)cc2)N2CCCCC[C@@H](C2=O)N(C)C(=O)CN(C)C1=O	–	–	–	–	B (a compound having 3 or more and less than 10 is denoted as B)	B (a compound having 3 or more and less than 10 is denoted as B)	198	1.2
CCO[C@@H]1C[C@H]2C(=O)NC3(CCCC3)C(=O)N(C)[C@@H](C3CCCC3)C(=O)N(C)[C@H](C(=O)N(C)C)CC(=O)N(C)[C@@H](CC3CC3)C(=O)N[C@@H]([C@@H](C)CC)C(=O)N(C)CC(=O)N(C)[C@H]3CC[C@@H](C)CN(C3=O)[C@@H](Cc3ccc(C(F)(F)F)cc3)C(=O)N(C)CC(=O)N[C@@H](CCc3ccc(C(F)(F)F)c(Cl)c3)C(=O)N2C1	–	–	–	–	B (a compound having 3 or more and less than 10 is denoted as B)	B (a compound having 3 or more and less than 10 is denoted as B)	4.1	0.045
CCOC1CC2C(=O)NC3(CCC3)C(=O)N(C)C(C(CC)CC)C(=O)N(C)C(C(=O)N(C)C)CC(=O)N(C)C(CC3CCCC3)C(=O)NC(C(C)CC)C(=O)N(C)CC(=O)N(C)C3CC=CCCN(C3=O)C(Cc3ccc(C(F)(F)F)cc3)C(=O)N(C)CC(=O)NC(CCc3ccc4sccc4c3)C(=O)N2C1 (stereo not shown)	–	–	–	–	A (a compound having 10 or more and less than 20 is denoted as A)	AA (a compound having 20 or more is denoted as AA)	55.1	1.6
